# Measurements from US20160220464A1 (WUHAN OPTICS VALLEY BRIDGEBIOMED INTERNATIONAL CORPORATION, priority 2013, published 2016).
# The chains behind the UniProt entries cited, without tags or fusion partners.
# UniProt P30411, whole entry: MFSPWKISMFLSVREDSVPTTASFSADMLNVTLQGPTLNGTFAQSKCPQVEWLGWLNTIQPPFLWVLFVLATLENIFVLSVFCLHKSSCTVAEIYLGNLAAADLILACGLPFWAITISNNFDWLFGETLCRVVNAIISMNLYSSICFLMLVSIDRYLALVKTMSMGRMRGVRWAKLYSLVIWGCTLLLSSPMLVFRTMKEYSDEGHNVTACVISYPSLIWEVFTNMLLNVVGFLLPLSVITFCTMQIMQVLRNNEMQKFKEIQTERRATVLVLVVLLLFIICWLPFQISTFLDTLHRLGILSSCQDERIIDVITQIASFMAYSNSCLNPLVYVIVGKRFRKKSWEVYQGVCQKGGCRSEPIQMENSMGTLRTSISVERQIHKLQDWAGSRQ
# Target: T1, B2 receptor (Homo sapiens, UniProt P30411)
# T1 construct: The cell strains used in the study were human primary vein endothelial cells (HPVEC) and human aortic smooth muscle cells (HASMC); endogenous in cells; host or cells: human primary vein endothelial cells (HPVEC) and human aortic smooth muscle cells (HASMC)
# Test: Relative PG secretion with B2 receptor inhibitor HOE-140
# Format: cell-based
# Conditions: 1 μM HOE-140; agonists under 10 μM
# Procedure: The detailed protocol for the elucidation of inhibited PG secretion by B2 receptor inhibitor HOE-140 was shown as follows. Two different cell lines were transferred into T-75 cell culture flask, and then the instructions of PG kit were strictly followed when cells have reached the appropriate density. Day 1. Cells were seeded in 24 well dishes with minimum medium and allowed to adhere overnight. Day 2. Cells were starved in the serum-free conditioned medium. Day 3. Minimum medium were used, and 0.1 nM, 1 nM, 10 nM, 30 nM, 100 nM, 300 nM, 1 μM, 3 μM and 10 μM of three compounds were added to the medium, respectively, and 1 μM of HOE-140 was added at the same time. Cells were incubated at 37° C. for 1 h. The supernatant was collected after incubation for later use. Day 4. 24 well dishes were washed and then dyed for 45-90 min, and then the quantitative analysis was carried out. Therefore OD values (420 nm) of BK B2 receptor agonists were obtained and relative PG amounts were calculated.
substance,measurement,value
HOE-140 [reference compound],block of PG synthesis caused by the three compounds,more than 90%
